Biological target: T1, Gadd45β/MKK7 interaction (Homo sapiens, UniProt O14733)
T1 construct: The GST-fused full-length kinase was coated for 16 h at 4° C., at a concentration of 42 nM; made in house
T1 sequence (O14733 1-419): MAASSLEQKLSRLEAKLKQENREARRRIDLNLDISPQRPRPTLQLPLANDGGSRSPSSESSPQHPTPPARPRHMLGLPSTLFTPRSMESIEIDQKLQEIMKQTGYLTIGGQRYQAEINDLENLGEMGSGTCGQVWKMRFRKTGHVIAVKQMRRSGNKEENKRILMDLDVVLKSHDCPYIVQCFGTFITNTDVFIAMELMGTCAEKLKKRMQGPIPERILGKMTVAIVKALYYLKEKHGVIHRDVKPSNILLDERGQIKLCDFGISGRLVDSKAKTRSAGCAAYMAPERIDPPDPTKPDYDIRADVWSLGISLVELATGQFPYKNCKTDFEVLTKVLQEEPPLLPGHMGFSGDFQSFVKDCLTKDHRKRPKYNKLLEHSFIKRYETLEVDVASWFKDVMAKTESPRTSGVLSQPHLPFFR
Assay: ELISA competition assay of biotin-hGadd45β binding to coated GST-MKK7
Method: To evaluate the inhibitory properties of peptides, ELISA-based assays were performed. In these assays, a fusion protein of glutathione S-transferase (GST) and mitogen-activated protein kinase kinase 7 (MKK7) was coated onto wells of a 96-well plate, while biotinylated-hGadd45β was used in solution. hGadd45β was biotinylated using an EZ Link NHS-LC-biotin kit (Pierce, Rockford, Ill.), according to Tornatore et al. (Tornatore L., et al. (2008). J Mol Biol; 378:97-111).
Firstly, the association between Gadd45β and MKK7 was investigated by ELISA assays as also reported in Tornatore et al. (Tornatore L., et al. (2008). J Mol Biol; 378:97-111). The GST-fused full-length kinase was coated for 16 h at 4° C., at a concentration of 42 nM in buffer A (25 mM Tris pH 7.5, 150 mM NaCl, 1 mM DTT and 1 mM EDTA) into wells of a 96-well microliter plate. Some wells were filled with buffer alone and were used as blanks. After incubation for 16 h at 4° C., the solutions were removed and the wells were filled with 350 μL of a 1% (w/v) solution of NFDM (Non Fat Dry Milk) in PBS (phosphate buffered saline). The plate was incubated for 1 h at 37° C. in the dark. After washing with buffer T-PBS (PBS with 0.004% (v/v) Tween detergent), the wells were filled with 100 μL of biotinylated-hGadd45β at concentrations ranging from 8.4 nM to 168 nM. Each data point was performed in triplicate. Following incubation for 1 hr in the dark at 37° C. the solutions were removed and the wells were again washed with T-PBS. Then 100 μL of a 1:10,000 dilution of horseradish peroxidase-conjugated streptavidin dissolved in buffer was added to each well and the plate incubated for 1 hr at 37° C. in the dark. After removal of the enzyme solution and washing, 100 μL of the chromogenic substrate o-phenylendiamine (0.4 mg/mL in 50 mM sodium phosphate-citrate buffer, containing 0.4 mg/mL of urea in hydrogen peroxide) was added and the colour was allowed to develop in the dark for 5 min. The reaction was stopped by adding 50 μL of 2.5 M H2SO4. The absorbance at 490 nm was measured in all wells and the values were averaged after subtracting the corresponding blanks. Bound protein was then detected as described above. The molar concentration of biotinylated-hGadd45β at which the half-maximal ELISA signal is detected corresponds to the dissociation constant (KD) (Friguet B, Chaffotte A F, Djavadi-Ohaniance L, Goldberg M E. J Immunol Methods. 1985 Mar. 18; 77 (2):305-19). Binding competition assays were performed by coating GST-MKK7 at 42 nM as described, a concentration of biotinylated-hGadd45β of 21 nM (pre-saturation conditions 1:0.5 mol/mol ratio) and, in a first test, using competitors at 21 nM. The binding of biotinylated hGadd45β to GST-MKK7 was analyzed in the presence of increasing amounts of competitor peptide (concentrations ranging from 0.01 nM to 100 nM), and the values obtained with the competitor were expressed as the percentage of the binding detected in the absence of competitor. […] According to the convention adopted in the table “L-Xaa” and “D-Xaa” refer to the L and D forms of amino acid Xaa.
A simplified combinatorial peptide library (Marasco et al. 2008, Curr. Protein Pept. Sci. 9:447-67) was screened for antagonists of the Gadd45β/MKK7 interaction. This library contained a total of 12^4=20,736 different tetrapeptides formed by combinations of the following amino acid residues Gln (Q), Ser (S), Arg (R), Ala (A), Tyr (Y), Pro (P), Met (M), Cys (C), Phe (F), Leu (L), His (H), Asp (D), and was iteratively deconvoluted in four steps by ELISA competition assays using at each step coated MKK7 (42 nM), soluble-biotin-hGadd45β (21 nM) and each of the 12 sub-libraries (42 nM).

[1] = Table VI, compounds 0.01-100 nM

IC50 (Table V, FIG. 3C) | SMILES | IC50 [1]
> 10 nM | CC(=O)N[C@H](Cc1ccc(O)cc1)C(=O)N[C@H](CCC(N)=O)C(=O)N[C@H](Cc1ccccc1)C(N)=O [Ac-Tyr-Gln-Phe-NH2] | –
> 10 nM | CSCC[C@@H](NC(=O)[C@@H](Cc1ccc(O)cc1)NC(C)=O)C(=O)N[C@H](CCCNC(=N)N)C(=O)N[C@H](Cc1ccccc1)C(N)=O [Ac-Tyr-Met-Arg-Phe-NH2] | –
10 nM | CC(=O)N[C@H](Cc1ccc(O)cc1)C(=O)N[C@H](CC(N)=O)C(=O)N[C@H](CCCNC(=N)N)C(=O)N[C@H](Cc1ccccc1)C(N)=O [Ac-Tyr-Asn-Arg-Phe-NH2] | –
1.8 nM | CC(=O)N[C@H](Cc1ccc(O)cc1)C(=O)N[C@H](CC(C)C)C(=O)N[C@H](Cc1ccccc1)C(N)=O [Ac-Tyr-Leu-Phe-NH2] | –
> 5 nM | CC(=O)N[C@H](Cc1ccc(O)cc1)C(=O)N[C@H](Cc1ccc(O)cc1)C(=O)N[C@H](CCCNC(=N)N)C(=O)N[C@H](Cc1ccccc1)C(N)=O [Compound 18, Ac-Tyr-Tyr-Arg-Phe-NH2] | –
5 nM | CC(=O)N[C@H](Cc1ccc(O)cc1)C(=O)N[C@H](CC(C)C)C(=O)N[C@H](CCCNC(=N)N)C(=O)N[C@H](Cc1ccccc1)C(N)=O [Ac-Tyr-Leu-Arg-Phe-NH2] | –
> 10 nM | CSCC[C@@H](NC(=O)[C@@H](Cc1ccc(O)cc1)NC(C)=O)C(=O)N[C@H](Cc1ccccc1)C(N)=O [AC-Tyr-Met-Phe-NH2] | –
– | CC(=O)N[C@H](Cc1ccc(O)cc1)C(=O)N1CCC[C@@H]1C(=O)N[C@H](Cc1ccccc1)C(N)=O [Compound B13, Ac-YPF-NH2] | 0.645 nM
1.9 nM | CC(=O)N[C@H](Cc1ccc(O)cc1)C(=O)N[C@H](CC(N)=O)C(=O)N[C@H](Cc1ccccc1)C(N)=O [Ac-Tyr-Asn-Phe-NH2] | –
5 nM | CC(=O)N[C@H](Cc1ccc(O)cc1)C(=O)N[C@H](CCC(N)=O)C(=O)N[C@H](CCCNC(=N)N)C(=O)N[C@H](Cc1ccccc1)C(N)=O [Ac-Tyr-Gln-Arg-Phe-NH2] | –
– | CC(=O)N[C@H](Cc1ccc(O)cc1)C(=O)N[C@H](CCCNC(=N)N)C(=O)N[C@H](Cc1ccc(O)cc1)C(N)=O [Compound O3, Ac-YRY-NH2] | 0.758 nM
